How the values were obtained:
IL-23R = target: T1, IL-23R (Homo sapiens, UniProt Q5VWK5); assay: IL-23R reporter assay (HEK293, STAT-inducible luciferase); assay type: cell-based; conditions: IL-12Rβ1 and STAT-inducible luciferase reporter
T1 construct: host or cells: HEK293
T1 sequence (Q5VWK5 24-629): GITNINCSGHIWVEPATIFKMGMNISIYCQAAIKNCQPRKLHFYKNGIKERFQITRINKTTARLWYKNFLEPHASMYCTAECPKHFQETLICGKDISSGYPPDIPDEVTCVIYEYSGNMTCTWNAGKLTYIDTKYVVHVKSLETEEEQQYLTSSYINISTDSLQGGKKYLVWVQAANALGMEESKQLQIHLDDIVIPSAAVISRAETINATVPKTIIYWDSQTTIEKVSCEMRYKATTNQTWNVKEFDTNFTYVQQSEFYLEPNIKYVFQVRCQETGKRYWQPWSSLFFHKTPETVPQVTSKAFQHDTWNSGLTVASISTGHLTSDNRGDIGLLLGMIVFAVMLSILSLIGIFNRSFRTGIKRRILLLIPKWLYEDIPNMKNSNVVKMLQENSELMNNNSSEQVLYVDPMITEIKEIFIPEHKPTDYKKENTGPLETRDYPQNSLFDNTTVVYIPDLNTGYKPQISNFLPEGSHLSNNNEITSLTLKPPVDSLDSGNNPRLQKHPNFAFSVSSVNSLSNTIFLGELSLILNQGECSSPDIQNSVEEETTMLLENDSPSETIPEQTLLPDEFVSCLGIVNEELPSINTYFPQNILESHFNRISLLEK
Description: Example 4. IL-23R Reporter Assay
Compounds were serially diluted in 100% (v/v) DMSO) and plated using an Echo acoustic dispenser (Labcyte) into 1536-well non-treated black assay plates (Corning #9146). 3 μL of HEK293 cells containing IL-23R, IL-12Rβ1 and a firefly luciferase reporter gene driven by a STAT-inducible promoter (Promega) were added to the plates (4000 cells/well), followed by 3 μL of 20 ng/mL IL-23 (equivalent to EC90 concentration). After 5 h at 37° C., 5% CO2, 95% relative humidity, cells were placed at 20° C. and treated with BioGlo reagent (Promega) according to the manufacturer's instructions. Luminescence was measured on a Pherastar FSX (BMG LabTech). Data were normalized to IL-23 treatment (0% inhibition) and 30 μM of control inhibitor (100% inhibition), and IC50 values were determined using a 4-parameter Hill equation. Where multiple measurements have been made the average is shown with the number of replicates indicated in parenthesis following the IC50 values.

[1] = target: T2, peripheral blood mononuclear cells (PBMCs) stimulated with IL-23 (Homo sapiens, UniProt Q5VWK5); assay: PBMC pSTAT3 assay; assay type: cell-based; conditions: read-out: PBMC pSTAT3 IC50; PBMCs from healthy donors; IL-23 5 ng/mL, 30 minutes; phosphorylated STAT3 in lysates
T2 sequence (Q5VWK5 24-629): T1 sequence (Q5VWK5 24-629)
Description: Cryopreserved peripheral blood mononuclear cells (PBMCs) from healthy donors were thawed and washed twice in ImmunoCult-XF T cell expansion medium (XF-TCEM) supplemented with CTL anti-aggregate wash. The cells were counted, resuspended at 2×10^5 cells per mL XF-TCEM supplemented with penicillin/streptomycin and 100 ng/mL […] (BioLegend, 579404), and cultured in tissue culture flasks coated with anti-CD3 (eBioscience, 16-0037-85 or BD Pharmingen, 555329) at 37° C. in 5% C02. On day 4 of culture, PBMCs were collected, washed twice in RPMI-1640 supplemented with 0.1% BSA (RPMI-BSA), and incubated in RPMI-BSA in upright tissue culture flasks for 4 hours at 37° C. in 5% C02. Following this ‘starvation,’ a total of 6×10^4 cells in 30 μL RPMI-BSA was transferred into each well of a 384-well plate pre-spotted with peptide or DMSO. The cells were incubated for 30 minutes prior to the addition of IL-23 at a final concentration of 5 ng/mL. The cells were stimulated with cytokine for 30 minutes at 37° C. in 5% C02, transferred onto ice for 10 minutes, and lysed. Cell lysates were stored at −80° C. until phosphorylated STAT3 was measured using the phospho-STAT panel kit (Meso Scale Discovery, K15202D). The results produced with PBMCs are provide in Table 5 below for several from Examples along with data from the IL23R Reporter Assays utilizing HEK293 cells described above. The results are reported for single assays or as the average of replicate assays as indicated by the number in parentheses following the IC50 value.

[2] = Table 4, HEK293 cells with IL-23R, stimulated with IL-23

Substance | IC50 (IL-23R; [2]) [nM] | IC50 [1] [nM] | IC50 (IL-23R; HEK293 cells containing IL-23R, 20 ng/mL IL-23 (EC90), 5 h) [nM]
5Ava(2)-Abu(1)-N-T-W-Q-C(1)-AEF-2Nal-THP-E(2)-N-3Pya-Sar-K(PEG2PEG2gEC18OH)-CONH2 [Example 250] | 3.2 | 0.0277 | 
CF3CO-Pen(3)-E(2)-T-7MeW-K(NMeAc)-Pen(3)-AEF(2)-2Nal-THP-K(NMeAc)-N-3Pya-Sar-CON(Me)2 [Example 221] | ~9410 | 1100 | 
MeCO-Pen(3)-K(NMe)(5)-T-7MeW-K(Ac)-Pen(3)-AEF(5)-2Nal-THP-E-N-3Pya-Sar-CONH2 [Example 265] | 2.2 | 0.002 | 
MeCO-Pen(3)-N-3OHPro-7MeW-S5H(4)-Pen(3)-AEF-2Nal-S5H(4)-K(Ac)-N-3Pya-CONH2 [Example 202] |  | 0.0155 | 7150
